Data reported in patent publication US20250270222A1, “AP2 ASSOCIATED KINASE 1 INHIBITORS AND USES THEREOF” (Satellos Bioscience Inc., priority 2023, published 2025).

The chains behind the UniProt entries cited, without tags or fusion partners. Residues count along the entry.
UniProt Q9NSY1, 38-345 K320A/K321A: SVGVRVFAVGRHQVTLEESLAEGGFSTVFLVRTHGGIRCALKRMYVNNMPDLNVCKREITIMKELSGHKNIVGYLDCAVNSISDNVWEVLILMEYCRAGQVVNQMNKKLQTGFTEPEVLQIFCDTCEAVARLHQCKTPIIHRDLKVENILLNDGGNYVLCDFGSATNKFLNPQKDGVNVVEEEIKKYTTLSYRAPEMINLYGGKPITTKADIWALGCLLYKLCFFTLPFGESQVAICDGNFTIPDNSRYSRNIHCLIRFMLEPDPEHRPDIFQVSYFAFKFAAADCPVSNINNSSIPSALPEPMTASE

Biological target: BIKE (amino acids S38-E345) (K320A, K321A) (Homo sapiens (Human), UniProt Q9NSY1, K320A/K321A)
Experiment: BIKE pSENs assay
Assay type: biochemical
Procedure: The recombinant proteins were independently expressed in Esherichia coli BL21(DE3) cells cultured in Luria-Bertani (LB) medium until OD600 reached 0.6-0.8, then cooled to 15° C., and supplemented with 0.5 mM isopropyl 1-thio-D-galactopyranoside (IPTG) induce protein expression 16 h. Cells were harvested and resuspended in lysis buffer (50 mM HEPES pH 7.5, 500 mM NaCl, 5 mM imidazole, 5% glycerol, 0.5 mM Tris (2-carboxyethyl) phosphine (TCEP), cOmplete Protease Inhibitor Tablet (Roche)) and lysed by microfluidics high pressure homogenizer (UH-06, Union-Biotech). Proteins were purified using Ni-Affinity chromatography (His FF column, Bestchrom) and eluted stepwise in binding buffer with 20-300 mM imidazole. Removal of the hexahistidine tag was performed at 4° C. overnight using recombinant TEV protease and reacted with BirA to obtain the corresponding biotinylated-AAK1. BIKE or GAK proteins. Further separated in the reverse Strep column (Strep-Tactin® XT, IBA). The Biotin elution sample was collected containing untagged biotinylated protein was then purified by Ion-exchange chromatography (Mono Q 10/100 GL, Cytiva) and Size-exclusion chromatography (HiLoad 16/600 Superdex 200 pg, Cytiva). The pure protein was stored in a storage buffer 50 mM HEPES (pH 7.5), 300 mM NaCl, 5% glycerol at −80° C. Protein were characterized by SDS-PAGE. LC-MS and aSEC. […]

## NC(=O)CN1C[C@H](OC(=O)N2CCN(c3ccn4ncc(-c5cccnc5OC5CC5)c4n3)CC2)CC1=O [Compound I-29, [(3R)-1-(2-Amino-2-oxo-ethyl)-5-oxo-pyrrolidin-3-yl]4-[3-[2-(cyclopropoxy)-3-pyridyl]pyrazolo[1,5-a]pyrimidin-5-yl]piperazine-1-carboxylate]
  IC50: > 1500 nM
